Experimental data reported in patent EP1388586A2, “Identification of broadly reactive DR restricted epitopes” (priority 1998, dated 1999).
Like-named read-outs stand apart in the source and are kept apart here.

Chains of the proteins cited; added tags and fusions are not shown. Residues count along the entry.
UniProt Q30154, 30-266: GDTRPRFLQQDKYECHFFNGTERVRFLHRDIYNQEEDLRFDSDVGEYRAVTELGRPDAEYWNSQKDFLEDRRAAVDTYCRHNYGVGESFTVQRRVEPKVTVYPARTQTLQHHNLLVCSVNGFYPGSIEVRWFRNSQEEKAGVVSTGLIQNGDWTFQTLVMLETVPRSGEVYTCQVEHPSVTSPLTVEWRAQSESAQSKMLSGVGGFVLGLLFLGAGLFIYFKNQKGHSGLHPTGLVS

Tests used:
[1] = target: T1, DRB1*1101 (DR5w11) (Homo sapiens, UniProt P01903+P01911, A100R/A169T/A87E/I96F/K41T/L162R/M171V/P40S/Q125H/Q178H/Q39Y/Q99D/R42S/S66Y/T262R/V115G/W38E); assay: Class II peptide-binding assay, DR5w11;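 note: competition by unlabeled test peptide against iodinated probe peptide binding to affinity-purified HLA-DR, class II amount titrated beforehand, half-maximal inhibitory concentration read as approximate Kd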
T1 construct: used as sources of human HLA class II molecules; endogenous in cells; host or cells: SWEIG (EBV-transformed homozygous B cell line)

[2] = target: T2, DRB1*0401 (DR4w4) (Homo sapiens, UniProt P01903+P01911, A100K/A169T/F76Y/I96L/K127E/L162R/M171V/N62H/P40V/Q125Y/R42H/S133A/S149N/S66Y/V115G/V209L/W38E); assay: Class II peptide-binding assay, DR4w4; conditions: read-out: DR4w4 nM (In IC50 Format); purified HLA DR4w4;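 note: unlabeled test peptides compete with a radiolabeled probe peptide for binding to affinity-purified HLA-DR, with DR amount titrated to capture a small fraction of label, IC50 approximating Kd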
T2 construct: used as sources of human HLA class II molecules; endogenous in cells; host or cells: PREISS (EBV-transformed homozygous B cell line)

[3] = target: T3, DRB5*0101 (DR2w2a) (Homo sapiens, UniProt P01903+Q30154); assay: Class II peptide-binding assay, DR2w2a (DR2w2B2);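 note: competitive binding assay: unlabeled peptide inhibiting binding of a radiolabeled probe peptide to purified DR molecules at pH 7.0, IC50 approximating Kd, lower means stronger binding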
T3 construct: used as sources of human HLA class II molecules; endogenous in cells; host or cells: GM3107 (EBV-transformed homozygous B cell line)

[4] = target: DRB1*0701 (DR7) (Homo sapiens, UniProt P01903+P01911, A100R/A102G/A103Q/D57E/D86V/E43K/F76Y/K127E/L162R/M171V/P40G/Q125H/Q99D/R33Q/R42Y/R54Q/S133A/S66F/T210M/V115G/Y107V/Y59L/Y89S); assay: Class II peptide-binding assay, DR7; conditions: Table VIII;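 note: unlabeled peptides compete with an iodinated probe peptide for binding to affinity-purified HLA-DR at neutral pH, DR amount titered to bind a small tracer fraction, IC50 approximating Kd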
[5] = target: T4, DRB1*1501 (DR2w2b) (Homo sapiens, UniProt P01903+P01911); assay: Class II peptide-binding assay, DR2w2b (DR2w2B1); conditions: read-out: In IC50 Format DR2w2β1; Table VIII
T4 construct: expressed in transfected cells; host or cells: L466.1 transfected fibroblasts

[6] = read-out: DR5w11 nM (In IC50 Format), purified HLA DR5w11

Molecule: CC(C)C[C@H](NC(=O)[C@@H](NC(=O)[C@@H](NC(=O)[C@H](CCC(N)=O)NC(=O)[C@H](CO)NC(=O)[C@H](CCC(N)=O)NC(=O)[C@H](Cc1ccccc1)NC(=O)[C@H](CCCNC(=N)N)NC(=O)[C@H](C)NC(=O)[C@@H](N)Cc1ccc(O)cc1)[C@@H](C)O)[C@@H](C)O)C(=O)N[C@@H](CCCCN)C(=O)N[C@@H](C)C(=O)N[C@@H](CCC(=O)O)C(=O)N[C@H](C(N)=O)[C@@H](C)O [Peptide 717.26]
- IC50 [1, 6]: 0.0833 µM

Molecule: CC(C)C[C@H](NC(=O)[C@@H](NC(=O)[C@@H](NC(=O)[C@H](CCC(N)=O)NC(=O)[C@H](Cc1ccccc1)NC(=O)[C@H](CCC(N)=O)NC(=O)[C@H](Cc1ccccc1)NC(=O)[C@H](CCCNC(=N)N)NC(=O)[C@H](C)NC(=O)[C@@H](N)Cc1ccc(O)cc1)[C@@H](C)O)[C@@H](C)O)C(=O)N[C@@H](CCCCN)C(=O)N[C@@H](C)C(=O)N[C@@H](CCCCN)C(=O)N[C@H](C(N)=O)[C@@H](C)O [Peptide 717.46]
- IC50 [2]: 0.0035 µM

Molecule: CC[C@H](C)[C@H](NC(=O)[C@H](CCCCN)NC(=O)[C@H](CC(C)C)NC(=O)[C@@H](NC(=O)[C@@H](NC(=O)[C@H](CCC(N)=O)NC(=O)[C@H](CCCNC(=N)N)NC(=O)[C@H](CCC(N)=O)NC(=O)[C@H](Cc1ccccc1)NC(=O)[C@H](CCCNC(=N)N)NC(=O)[C@H](C)NC(=O)[C@@H](N)Cc1ccc(O)cc1)[C@@H](C)O)[C@@H](C)O)C(=O)N[C@@H](C)C(=O)N[C@H](C(=O)O)[C@@H](C)O [Peptide 716.01]
- IC50 [1, 6]: 0.0833 µM

Molecule: CC[C@H](C)[C@H](NC(=O)[C@H](CC(C)C)NC(=O)[C@H](C)NC(=O)[C@@H](N)CC(C)C)C(=O)N[C@@H](Cc1c[nH]cn1)C(=O)N[C@@H](Cc1c[nH]cn1)C(=O)N[C@@H](CC(N)=O)C(=O)N[C@H](C(=O)N[C@@H](Cc1c[nH]cn1)C(=O)N[C@@H](CC(C)C)C(=O)N[C@@H](CS)C(=O)N[C@@H](Cc1ccccc1)C(=O)N[C@H](C(=O)N[C@@H](Cc1c[nH]cn1)C(=O)N[C@H](C(=O)O)[C@@H](C)O)C(C)C)[C@@H](C)O [Peptide 39.0352]
- IC50 ([3]; read-out: In IC50 Format DR2w2B2 nM, Table VIII, values in parentheses read as lower bounds): 22.2 µM

Molecule: GIEVVEVVPISHLYI [Peptide 39.0284]
- IC50 ([3]; read-out: In IC50 Format DR2w2B2): 22.2 µM

Molecule: CC(C)C[C@H](NC(=O)[C@H](CCCNC(=N)N)NC(=O)[C@H](Cc1ccccc1)NC(=O)CN)C(=O)NCC(=O)N[C@@H](Cc1ccccc1)C(=O)N[C@@H](CC(C)C)C(=O)N[C@@H](Cc1c[nH]cn1)C(=O)N[C@@H](CO)C(=O)NCC(=O)N[C@H](C(=O)N[C@@H](C)C(=O)N[C@@H](CCCCN)C(=O)N[C@@H](CO)C(=O)N[C@H](C(=O)O)C(C)C)[C@@H](C)O [Peptide 39.0307]
- IC50 ([4]; read-out: In IC50 Format DR7 nM, page 2): 0.0693 µM

Molecule: CC[C@H](C)[C@H](NC(=O)[C@H](CO)NC(=O)[C@H](CC(=O)O)NC(=O)[C@@H](N)CCC(=O)O)C(=O)N[C@@H](CC(C)C)C(=O)NCC(=O)N[C@@H](CC(=O)O)C(=O)N1CCC[C@H]1C(=O)N[C@@H](CCCCN)C(=O)N[C@@H](CCCCN)C(=O)N[C@@H](CC(C)C)C(=O)N[C@@H](CC(C)C)C(=O)N[C@H](C(=O)N[C@@H](CCC(N)=O)C(=O)N[C@@H](Cc1c[nH]cn1)C(=O)O)[C@@H](C)O [Peptide 39.0407]
- IC50 [5]: > 15.2 µM
- IC50 ([4]; read-out: In IC50 Format DR7): > 17.9 µM
- IC50 ([3]; read-out: In IC50 Format DR2w2β2, Table VIII): > 20 µM
- IC50 ([1]; read-out: In IC50 Format DR5w11, Table VIII): > 25 µM
